These results are taken from patent US20260382729A1, “HETEROBIFUNCTIONAL COMPOUNDS AS p53 ACETYLATORS” (published 2026).

Assay [1] has as its system p53K382ac level in NUGC-3 cells. Briefly: p53K382ac level, Western blot, NUGC-3. Particulars: 10 μM, 24 h. From the text: Right: quantification of the normalized p53K382ac level in BxPC3 cells from three independent experiments. *P<0.05, **P<0.01, ***P<0.001. […] . GraphPad Prism 8 was used in analysis of raw data. […] . Cells were fixed and stained with crystal violet and the images are representative of two independent experiments. […] . Total cell lysate was used for western blots, as previously described.^47 The following primary antibodies were used in the study: Vinculin (Cell Signaling Technology [CST], 13901), p53 (CST, 2527), acetyl-p53 (lys-382) (CST, 2525), acetyl-p53 (lys-379) (CST, 2570), p21 (CST, 2947), p300 (CST, 86377), p53 polyclonal antibody (Proteintech, 10442-1-AP). Blots were imaged using fluorescence-labeled secondary antibodies on LI-COR Odyssey CLx Imaging Systems.
On the technique in general: Immunoblotting shows a protein as a band on a membrane.

The test system of assay [2] is NUGC-3 cells. Briefly: clonogenic assay, NUGC-3. The protocol: Right: quantification of the normalized p53K382ac level in BxPC3 cells from three independent experiments. *P<0.05, **P<0.01, ***P<0.001. […] . GraphPad Prism 8 was used in analysis of raw data. […] . Cells were fixed and stained with crystal violet and the images are representative of two independent experiments. […] . The tumor-suppressive effect of MS78 in p53Y220C-harboring cancer cell lines was examined. […] . The clonogenic assay was performed as previously described.^48 BxPC3 or NUGC-3 cells (2000 cells per well) were seeded into 12-well tissue culture plates. After 24 h, cells were treated with 0, 1, 3 and 10 μM of indicated compounds for 14 d. Cell medium was changed with fresh full medium containing indicated compounds every 72 h. The plates were then washed with PBS and stained with the solution containing 0.5% (w/v) crystal violet and 6% (v/v) glutaraldehyde for 30 min. The plates were then washed with running water until cell colonies were clear without background color and then dried at room temperature. Epson Perfection V600 Photo was used for the acquisition of the images.

Assay [3] has as its system bromodomain (BRD) of CBP/p300. Briefly: AlphaScreen binding assay, CBP/p300 bromodomain. The conditions noted are these: read-out: IC50 for binding to CBP/p300 bromodomain, n=2. An excerpt:
. In addition, MS78 induced p53K382 acetylation in a time-dependent manner (FIG. 6D). […] . FIG. 12. MS78 is selective for the p300/CBP bromodomain over other bromodomain-containing proteins. […] .

In assay [4] the test system is gene expression in NCI-H1299 p53Y220C cells. Briefly: RNA-seq, NCI-H1299 isogenic cell lines. The protocol: FIG. 9. The p53Y220C AceTAC MS78 induces downstream signaling of canonical and non-canonical p53 pathways. (A) Heatmap enrichment in high confidence p53-target genes. NCI-H1299 p53-null and p53Y220C cell lines were treated with DMSO or 10 M of MS78 for 24 h in quadruplicate. […] . […] .
FIG. 16. […] . NCI-H1299 p53-null and p53Y220C stable cells were treated with DMSO or 10 μM of MS78 for 24 h in quadruplicates. Cells were washed three times using ice-cold 1×PBS and subsequently pelleted by centrifuging at 12,000 rpm at 4 °C. The pellet was flash frozen and sent to Azenta Life Sciences for further studies. The total RNA in 16 samples were extracted using Qiagen RNeasy Plus Mini Kit according to the protocols in the RNeasy Plus Mini Handbook published by Qiagen. RNA-seq libraries were constructed from the PolyA selected mRNA using the TruSeq RNA sample preparation guide (Illumina) and paired-end 150 base pairs sequencing on a HiSeq2500 system (Illumina) was performed at Azenta Life Sciences. The raw data in FASTQ format was analyzed as previously described.^50
After quality control of FASTQ files using the FASTQC tool (version 0.11.7) (http://www.bioinformatics.babraham.ac.uk/projects/fastqc/), we trimmed low-quality bases (Phred<10) and adapter sequences and then discarded short reads (length <60 nt) using the bbduk tool (version 37.53) (https://jgi.doe.gov/data-and-tools/bbtools/bb-tools-user-guide/). When either forward or reverse of a paired-end read were discarded, we discarded the complete paired-end read. We quantified the expression of transcripts using cleaned paired-end reads with the Salmon tool (version 0.9.1)^51 using the human reference transcriptome from The Cancer Genome Atlas (TCGA; […] . We identified as differential expressed between two conditions when the P value adjusted was at 5% and log 2(fold change) was more than 1. The heatmap was drawn using the R ComplexHeatmap library (version 2.14.0). We next performed GSEA to capture pathways perturbed towards both directions simultaneously using the 22.454 ranked genes identified in our dataset and annotated in ENSEMBL (version 94) against the 343 p53 target genes listed in previously reported study^39 using GSEAPreranked (version 4.3.2.; number of permutations=1000, no collapse) and the KEGG pathways using R GAGE (version 2.48.0).

As to `CCn1c2ccc(CNCCOCCOCCOCCn3cc(COc4ccc(CCc5nc6cc(-c7c(C)noc7C)ccc6n5CCN5CCOCC5)cc4F)nn3)cc2c2ccc(-c3cc(C)cs3)cc21`, the “increase in the p53K382ac level” value in assay [1] is recorded as “about 4 fold”. For the same compound, the clonogenicity result in assay [2] was “marked reduction in clonogenicity”. For the same compound, in assay [3], the IC50 stood at 3.02 µM. Further, in assay [4] (10 μM in p53Y220C vs DMSO in p53Y220C, DMSO in p53-null and MS78 in p53-null, Q-value=0.045), the “normalized enrichment score (NES), 343 high-confidence p53 target genes” value was determined as 1.32. Besides, in assay [4] (KEGG, 10 μM, 24 h, vs DMSO), the “homologous recombination, base excision repair and DNA replication pathway proteins” value is on record as “downregulation”; the “protein processing in endoplasmic reticulum (ER)” value was “upregulation”. In assay [4] (NCI-H1299 p53Y220C, 10 μM vs DMSO, 24 h, q-value<0.01), the “normalized enrichment score (NES), 343 high-confidence p53-target genes” value stood at 1.52. For the same compound, in assay [4] (RNA-seq, 10 μM, 24 h), the “BAX, PUMA (BBC3) and NOXA (PMAIP1) gene expression” value is listed as “no significant upregulation”; the “DDR genes (ATM, ATR, CHEK1/2) expression” value is recorded as “downregulation”; the “E2F1, CDC25A, CDK1 and CDK4 gene expression” value is recorded as “p53-dependent repression”; the “HMOX1 and NUPR1 gene expression” value was “upregulation”. In assay [4] (RNA-seq, 10 μM, 24 h), the “cell-cycle arrest genes (GADD45A, BTG1) expression” value is recorded as “upregulation”; the “heat shock protein genes (HSPA5, DNAJB1, HSP1A1/B) expression” value is listed as “upregulation”; the “p21 gene (CDKN1A) expression” value is listed as “upregulation”. Moreover, the “log 2 fold change of TRAIL genes (TNFRSF10A, TNFRSF10B, TNFRSF10D)” value in assay [4] (RNA-seq, 10 μM, 24 h, p-value<0.05) is over 2. Further, in assay [4] (RNA-seq, TRAIL-R1, TRAIL-R2, TRAIL-R4, 10 μM, 24 h), the TRAIL gene induction entry is “statistically significant induction”. Moreover, the “p53Y220C-specific differential gene expression” value in assay [4] (p53Y220C vs p53-null cells and DMSO controls, 10 μM, 24 h) was “upregulated TRAIL and key ferroptosis genes while downregulating the DDR pathway only in the NCI-H1299 p53Y220C cell line”.
